This assay addresses PARP2 L269A-mCherry (Homo sapiens, UniProt Q9UGN5, L282A). The format is cell-based. The conditions noted are these: CeTEAM stabilization, live U-2 OS dual biosensor cells, 24 h PARPi gradient, n = 3.

The chains behind the UniProt entries cited, without tags or fusion partners. A line that says so, or that is headed by a name, gives the form on record, which may keep a tag or linker.
UniProt Q9UGN5, other isoform, or with tags, fused parts or gaps L269A: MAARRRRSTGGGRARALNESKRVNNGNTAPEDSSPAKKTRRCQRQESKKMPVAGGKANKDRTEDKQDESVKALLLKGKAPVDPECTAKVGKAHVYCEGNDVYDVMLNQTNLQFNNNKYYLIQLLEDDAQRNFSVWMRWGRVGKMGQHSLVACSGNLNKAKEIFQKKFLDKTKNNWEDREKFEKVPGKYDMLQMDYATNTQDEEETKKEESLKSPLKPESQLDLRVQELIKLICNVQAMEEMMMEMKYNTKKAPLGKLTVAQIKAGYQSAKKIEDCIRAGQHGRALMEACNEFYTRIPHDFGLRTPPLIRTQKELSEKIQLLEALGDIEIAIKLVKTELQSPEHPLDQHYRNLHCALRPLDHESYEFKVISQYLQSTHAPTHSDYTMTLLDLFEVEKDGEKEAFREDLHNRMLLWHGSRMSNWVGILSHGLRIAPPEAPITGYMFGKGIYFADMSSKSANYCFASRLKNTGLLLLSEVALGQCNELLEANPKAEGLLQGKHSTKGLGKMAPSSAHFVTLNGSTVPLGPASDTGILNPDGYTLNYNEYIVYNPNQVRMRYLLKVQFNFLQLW

`CN(C)CC(=O)Nc1ccc2[nH]c(=O)c3ccccc3c2c1` [PJ34] had an EC50 of 1470 nM.

In general, EC50 refers to the concentration needed to bring the measured effect to its halfway point. The low end stands for greater potency, the high end for weaker potency.
